Biological target: T1, 17-beta-hydroxysteroid dehydrogenase type 2 (Homo sapiens, UniProt P37059)
T1 sequence (P37059 whole entry): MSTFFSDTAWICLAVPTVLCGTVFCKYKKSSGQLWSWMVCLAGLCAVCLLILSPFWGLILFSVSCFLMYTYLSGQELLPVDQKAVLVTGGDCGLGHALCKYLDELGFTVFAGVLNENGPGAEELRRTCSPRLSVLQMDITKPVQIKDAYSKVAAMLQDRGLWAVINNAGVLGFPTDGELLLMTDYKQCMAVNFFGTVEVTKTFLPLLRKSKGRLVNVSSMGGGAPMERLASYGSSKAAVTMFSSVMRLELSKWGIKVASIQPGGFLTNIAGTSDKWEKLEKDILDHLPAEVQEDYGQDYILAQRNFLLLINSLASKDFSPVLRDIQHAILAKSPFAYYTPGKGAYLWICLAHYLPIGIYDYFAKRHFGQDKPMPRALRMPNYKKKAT
Assay: Inhibition of human placental microsomal 17beta-HSD2 using [2,4,6,7-3H]-E2 as substrate after 20 mins in presence of NAD+ by RP-HPLC method

Structure (SMILES) | IC50
Cc1cc(-c2ccc(C(=O)c3c(F)ccc(O)c3F)s2)cc(Cl)c1O | 6.5 nM
COc1c(C)cc(-c2ccc(C(=O)c3c(F)ccc(O)c3F)s2)cc1Cl | 7.2 nM

Source: ChEMBL document CHEMBL3994586, “Treatment of estrogen-dependent diseases: Design, synthesis and profiling of a selective 17β-HSD1 inhibitor with sub-nanomolar IC50 for a proof-of-principle study” (Eur J Med Chem, 2017)
